Measured affinities in a library of Ab-95 light chain variants

Reference: Engelhart et al. 2022, doi:10.1038/s41597-022-01779-4. File: FLAb, binding data.

Target: peptide PDVDLGDISGINAS, taken from heptad repeat 2 (HR2) of SARS-CoV-2 spike.

The variants keep the heavy chain, the linker and the frameworks of Ab-95 (scFv order VH, a (GGGGS)3 linker, VL).
VH: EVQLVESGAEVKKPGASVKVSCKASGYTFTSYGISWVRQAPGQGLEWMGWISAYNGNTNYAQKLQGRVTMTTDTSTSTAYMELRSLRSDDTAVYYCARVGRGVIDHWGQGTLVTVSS
VL: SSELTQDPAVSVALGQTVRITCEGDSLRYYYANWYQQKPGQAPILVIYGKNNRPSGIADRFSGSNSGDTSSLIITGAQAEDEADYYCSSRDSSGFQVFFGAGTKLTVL

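The parent was found by panning a naive human phage display library on the peptide. The library (AAYL52) carries one to three amino acid substitutions per variant, with no insertions or deletions. The scFvs were displayed on barcoded MATa yeast, the peptide on MATalpha yeast. Mating (16 h, 30 °C) was followed by selection of diploids and sequencing of their barcodes. A regression on co-assayed BCL2-family reference pairs converts the normalised counts of each replicate to an apparent Kd. There are three technical replicates.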

Changes read parent residue, position, new residue, counted from the first residue of the VL shown.
Every variant below is changed at Y31 of the VL (sequential numbering).
Values are log10 of the apparent Kd in nM; lower means stronger binding.
The mean shown is taken over the replicates in which the pair was detected.
Where no diploid with the target was found in any replicate, the entry reads "nd": below detection, most likely a poor binder, though not proof of it.

The variant Y30R+Y31N+N51H showed 3.02 (2 of 3 replicates). The variant Y31H+S92Y+Q96K gave 2.46 (3 of 3 replicates). With L27P+Y31A+F95L the result was 3.71 (3 of 3 replicates). With Y31S+N51M+S93M the result was 4.17 (3 of 3 replicates). For E23V+Y29I+Y31F, the assay gave 2.81 (1 of 3 replicates).

For G24K+Y31H+R90A, the assay gave 3.93 (1 of 3 replicates). For G24R+Y31V+K50W, the assay gave nd (0 of 3 replicates). With Y31F+P54H+R90I the result was 2.88 (1 of 3 replicates). For Y31C+V97S+F98P, the assay gave 3.94 (2 of 3 replicates). For R28F+Y31Q, the assay gave 1.65 (3 of 3 replicates).

The variant Y31Q+G49Y+P54L showed 3.26 (2 of 3 replicates). With G24Y+Y31R the result was 3.53 (3 of 3 replicates). The variant Y31N+F95E gave 1.96 (3 of 3 replicates). The variant E23V+G24E+Y31I showed 3.25 (2 of 3 replicates). With Y31V+R90Q+F98V the result was 4.26 (2 of 3 replicates).

The variant E23M+Y31D showed 0.69 (3 of 3 replicates). The variant Y29V+Y31A+P54T showed 3.14 (2 of 3 replicates). With Y31R+A32G+N51C the result was 4.30 (2 of 3 replicates). With Y31V+S89V the result was 3.11 (3 of 3 replicates). The variant Y31H+S89T+Q96W showed 2.12 (3 of 3 replicates).

The variant Y31V+N51C+V97S gave 4.18 (2 of 3 replicates). The variant L27G+Y31M+V97G gave nd (0 of 3 replicates). For S26V+Y30M+Y31M, the assay gave 1.96 (3 of 3 replicates). The variant Y31T+G49I showed 3.87 (1 of 3 replicates). For L27M+Y31Q+S55D, the assay gave 1.41 (3 of 3 replicates).

For Y31S+R53C+G94L, the assay gave 4.15 (2 of 3 replicates). For Y29P+Y31V+R90N, the assay gave 3.56 (3 of 3 replicates). The variant Y31W+K50N+F95H gave 2.73 (3 of 3 replicates). For Y31N+N33D, the assay gave 4.90 (1 of 3 replicates). With Y30C+Y31W+P54Q the result was 3.12 (3 of 3 replicates).

The variant Y31P+N33C+F95H gave 3.09 (3 of 3 replicates). The variant Y31I+G94H+F95D gave 3.57 (1 of 3 replicates). The variant Y31F+D91Q+F95S gave 3.38 (3 of 3 replicates). The variant Y31K+S93F showed 3.93 (1 of 3 replicates). The variant Y31I+S89Y+G94K gave nd (0 of 3 replicates).

For E23M+Y31M+G94I, the assay gave 1.93 (3 of 3 replicates). With Y31M+D91T+Q96V the result was 2.22 (3 of 3 replicates). With Y31C+G49Q+S89V the result was 3.54 (3 of 3 replicates). With L27T+Y31P+F98D the result was 2.04 (3 of 3 replicates). With Y31M+S93K+Q96M the result was 1.86 (3 of 3 replicates).

The variant Y31C gave 2.08 (3 of 3 replicates). For Y29R+Y31G+F98K, the assay gave 3.93 (3 of 3 replicates). With Y31R+N52L+G94N the result was 2.37 (3 of 3 replicates). With Y31V+S92N the result was 3.06 (2 of 3 replicates). The variant R28W+Y31V+S93M showed 4.03 (3 of 3 replicates).

The variant Y31C+G49M+G94S showed nd (0 of 3 replicates). The variant Y31Q+S88A+F98Y showed 1.16 (3 of 3 replicates). The variant Y31N+K50E+S89M showed 1.88 (3 of 3 replicates).

The last 3 entries again:

For Y31C+G49M+G94S, the assay gave nd (0 of 3 replicates).
For Y31Q+S88A+F98Y, the assay gave 1.16 (3 of 3 replicates).
For Y31N+K50E+S89M, the assay gave 1.88 (3 of 3 replicates).

Background: pairings of library AAYL52 with three empty control strains gave a value in 28% of cases (median 3.91, 5th percentile 2.90). Values in that range, when seen in few replicates, are hard to tell from nonspecific mating.
For reference, the parent read 2.31 as the reference entry and 2.25 as a member of this library.